Assay outcomes from PubChem.
GIV Gai3 FP: inhibitors of GIV peptide binding to Galpha-i3, primary screen, biochemical, fluorescence polarization, FITC-GIV GBA peptide, rat Galphai3; hit rate 0.42% among 210,000; percent of control (FP), % (concentration not given with the values); 90 min; stronger effect = lower value; scaled: aluminum fluoride 0%, vehicle 100%; Guanine nucleotide-binding protein G(i) subunit alpha-3 (Rattus norvegicus), P08753;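 active = replicate mean at 85% of control or lower, very high polarization wells dropped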;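 note: wells of about 15 µL received 100 nL stock; the first replicate is given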
HCMV UL50-53 inh: inhibitors of HCMV UL50-UL53 interaction, biochemical, HTRF | HCMV UL50-UL53 nuclear egress complex (human cytomegalovirus) | normalized percent inhibition | inhibition, % (no concentration beside the values) | 190,000 compounds, 0.15% hits; in the data active = inhibition above about 27%, passing the limit was not always enough
GIV Gai FP conf: inhibitors of GIV peptide binding to Galpha-i3, confirmation, biochemical, fluorescence polarization, FITC-GIV peptide, rat Galphai3; shares compounds with GIV Gai3 FP; stronger effect = lower value; fluorescence polarization, mP at 100 µM; 580 compounds, 38% hits; AID 1259350, 2017;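 active = inhibition score of 15 or more, meaning 100 minus mean polarization as percent of control over three replicates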
GIV Gai AS conf: inhibitors of GIV binding to Galpha-i3, confirmation, orthogonal assay for GIV-Galpha-i inhibitor project, biochemical, AlphaScreen, His-GIV, GST-Galphai3 | shares compounds with GIV Gai3 FP | AID 1259351, 2017 | AlphaScreen counts at 100 µM | 580 compounds, 39% hits | purified proteins, 90 min; stronger effect = lower value;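 active = inhibition score at or above a set limit, where the score is 100 minus the three-replicate mean percent of control signal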
Each line names hits and unclear results; the compound was inactive in the other large screens (follow-up assays come after a bar, where they were run). Only some compounds are listed: those with a hit (about 0.43% of all), similar ones and a draw of the others.

By UniProt entry, the sequences of proteins in these tests, tags left out.
Guanine nucleotide-binding protein G(i) subunit alpha-3 (Rattus norvegicus), P08753, UniProt P08753, whole entry, looked up: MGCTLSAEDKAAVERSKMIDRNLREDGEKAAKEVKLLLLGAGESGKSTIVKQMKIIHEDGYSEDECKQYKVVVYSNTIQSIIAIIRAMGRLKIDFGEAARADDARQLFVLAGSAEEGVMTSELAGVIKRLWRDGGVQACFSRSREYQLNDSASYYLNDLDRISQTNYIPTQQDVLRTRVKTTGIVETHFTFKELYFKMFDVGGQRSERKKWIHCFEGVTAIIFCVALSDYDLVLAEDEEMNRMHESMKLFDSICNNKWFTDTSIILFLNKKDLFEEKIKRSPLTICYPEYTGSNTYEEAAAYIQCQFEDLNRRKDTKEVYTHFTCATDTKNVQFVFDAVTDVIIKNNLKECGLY

COn1c(C)c(C)c2c3no[n+]([O-])c3ccc21	GIV Gai3 FP 72.0 | GIV Gai FP conf inactive | GIV Gai AS conf 22452
CC(C)C(=O)c1cc2c(cc1NC(=O)c1ccccc1F)OCCO2	none (no result: HCMV UL50-53 inh)
COC(=O)c1c(N)c(C#N)c2n1CCCC2	none
COC(=O)c1c(N)c(C#N)c2n1CCC2	GIV Gai3 FP 80.1 (no result: HCMV UL50-53 inh) | GIV Gai FP conf 49 | GIV Gai AS conf 20250
C=CCN1C(=O)/C(=c2\sc3nc(-c4ccccc4)nn3c2=O)c2ccccc21	none (no result: HCMV UL50-53 inh)
CN(C)C(=O)c1ccc2c(c1)N(CC(=O)N1CCN(c3ccccn3)CC1)C(=O)CS2	none
O=C(Nc1ccc(-c2nc3ncccc3o2)cc1)c1ccccc1	none (no result: HCMV UL50-53 inh)
Cc1cc(C)c2oc(-c3ccc(NC(=O)COc4ccccc4C)cc3)nc2c1	none
Cc1ccc(C(C)C)c(OCC(=O)Nc2cccc(-c3nc4ncccc4o3)c2)c1	none
Cc1ccc(OCC(=O)Nc2ccc(-c3nc4ccccc4o3)cc2)c(C)c1	none | GIV Gai FP conf inactive | GIV Gai AS conf inactive
Cc1ccc(C(C)C)c(OCC(=O)Nc2cc(-c3nc4ncccc4o3)ccc2C)c1	none (no result: HCMV UL50-53 inh) | GIV Gai FP conf inactive | GIV Gai AS conf inactive
Cc1cc(C)cc(C(=O)Nc2ccc(-c3nc4ncccc4o3)cc2)c1	GIV Gai3 FP 82.4 | GIV Gai FP conf inactive | GIV Gai AS conf inactive
CC(C)OC(=O)CSc1nc2nc[nH]c2c(=O)[nH]1	none
N/C(=C\C(=O)c1ccc(Br)cc1)C(F)(F)F	none (no result: GIV Gai3 FP)
CN(C)c1ccc(C2/C(=C(/O)c3ccccc3)C(=O)C(=O)N2c2ccccc2)cc1 (stereo not drawn)	none (no result: HCMV UL50-53 inh)
O=C(O)c1cc(NS(=O)(=O)c2ccc3c(c2)CCCC3)ccc1N1CCN(C2CCCCC2)CC1	none
CC(C)(C)c1ccc(S(=O)(=O)Nc2cnc(N3CCNCC3)c(C(=O)N3CCCC3)c2)cc1	none (no result: HCMV UL50-53 inh)
O=C(O)c1cc(NS(=O)(=O)c2ccc(F)cc2)cnc1N1CCCC1	GIV Gai3 FP 77.1 | GIV Gai FP conf 46.9 | GIV Gai AS conf 18634
O=C(O)c1cc(NS(=O)(=O)c2ccc3c(c2)CCCC3)cnc1N1CCC(N2CCCCC2)CC1	GIV Gai3 FP 80.3 | GIV Gai FP conf 49.8 | GIV Gai AS conf inactive
COc1ccnc2c1c(=O)n(CC(=O)Nc1ccc(Br)cc1)c(=O)n2C	none
Cc1ccc(C(=O)c2[nH]c(=O)c3ccccc3c2O)c(C)c1	GIV Gai3 FP 81.2, HCMV UL50-53 inh 59.6 | GIV Gai FP conf inactive | GIV Gai AS conf inactive
CCOC(=O)c1[nH]c(=O)c2ccccc2c1O	none
Cn1cc2c3c(cccc31)CN(C(=O)NCC1CCCO1)CC2 (stereo not drawn)	none (no result: HCMV UL50-53 inh)
COCCn1cc2c3c(cccc31)CN(C(=O)NCC1CCCO1)CC2 (stereo not drawn)	GIV Gai3 FP 81.3 (no result: HCMV UL50-53 inh) | GIV Gai FP conf 60.2 | GIV Gai AS conf inactive
Cc1ccc(NC(=O)N2CCN(c3cc(=O)n4nc(-c5ccccc5C)sc4n3)CC2)c(Cl)c1	none | GIV Gai FP conf inactive | GIV Gai AS conf inactive
Cc1ccccc1-c1nn2c(=O)cc(N3CCN(C(=O)Nc4cccc(Cl)c4C)CC3)nc2s1	none
Cc1ccc(NC(=O)CC2C(=O)Nc3ccccc3N2C(C)C(=O)N2CCCCC2)c(C)c1 (stereo not drawn)	none (no result: GIV Gai3 FP)
COc1ccc(/C=c2\sc3ncnn3c2=O)cc1	none (no result: GIV Gai3 FP)
CCN(CC)c1ccc(/C=c2\sc3ncnn3c2=O)cc1	GIV Gai3 FP 57.3 (no result: HCMV UL50-53 inh) | GIV Gai FP conf 34.8 | GIV Gai AS conf inactive
COc1ccc(NC(=O)CC2CS(=O)(=O)CC2CC(=O)Nc2ccc(OC)cc2)cc1 (stereo not drawn)	none (no result: GIV Gai3 FP)
CN1C(C(=O)Nc2ccc(OC(F)(F)F)cc2)=CC(c2ccc3c(c2)OCO3)=NS1(=O)=O	GIV Gai3 FP 55.1 | GIV Gai FP conf inactive | GIV Gai AS conf inactive
CCc1ccc(NC(=O)C2=CC(c3ccc4c(c3)OCO4)=NS(=O)(=O)N2C)cc1	none
O=C(CSC1=NCCS1)c1ccccc1Br	none (no result: GIV Gai3 FP)
O=C(O)c1cc(N2CCN(c3ccccc3)CC2)nc2ccc(NS(=O)(=O)c3ccc(F)cc3)cc12	none
CC1=NN(c2cccc(C(F)(F)F)c2)C(=O)C1	none (no result: GIV Gai3 FP)
CC1=NN(c2cc(S(=O)(=O)O)c3cccc(S(=O)(=O)O)c3c2)C(=O)C1	GIV Gai3 FP 59.2 (no result: HCMV UL50-53 inh) | GIV Gai FP conf inactive | GIV Gai AS conf 2889
COc1ccc2c(c1)CC(C(=O)NCCc1ccc(S(N)(=O)=O)cc1)CO2 (stereo not drawn)	none (no result: HCMV UL50-53 inh)
O=C(O)C1Nc2c(I)cccc2C2C=CCC12 (stereo not drawn)	GIV Gai3 FP 42.9 | GIV Gai FP conf 36.4 | GIV Gai AS conf 1672
